Broadly, the pIC50 is the IC50 on a negative log10 scale, so that one unit is a factor of ten.

The text below walks through data of article PMC9452295.

The target of the experiment is MRAS(1–178)–Avi, biotinylated, wild type (human) (UniProt O14807). In words: FRET; MRAS WT/RBD pair. The following applies: natural protein.

pIC50: −log10 of the molar value.

With “full-length SHOC2 (residues 2–582), untagged (from UniProt Q9UQ13 2-582)”, the pIC50 is 5.72.
